This note sets out measurements from PubChem BioAssay AID504803 (The Scripps Research Institute Molecular Screening Center, 2011).

Chains of the proteins cited; added tags and fusions are not shown.
UniProt Q92743, whole entry: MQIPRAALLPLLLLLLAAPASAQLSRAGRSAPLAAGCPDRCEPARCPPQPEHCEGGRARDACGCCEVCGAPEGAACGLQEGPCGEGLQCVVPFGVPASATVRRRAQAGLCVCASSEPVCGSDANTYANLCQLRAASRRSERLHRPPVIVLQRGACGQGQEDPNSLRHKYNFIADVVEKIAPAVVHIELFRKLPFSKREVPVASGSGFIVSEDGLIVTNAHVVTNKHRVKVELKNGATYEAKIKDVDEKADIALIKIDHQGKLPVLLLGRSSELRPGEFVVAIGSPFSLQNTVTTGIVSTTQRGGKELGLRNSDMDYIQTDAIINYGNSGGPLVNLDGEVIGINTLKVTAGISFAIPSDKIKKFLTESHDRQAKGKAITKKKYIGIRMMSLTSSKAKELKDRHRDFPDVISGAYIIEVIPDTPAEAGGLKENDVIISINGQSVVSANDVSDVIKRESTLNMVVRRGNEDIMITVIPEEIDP

This is a selection; strong and weak results do not stand in their true shares. Some structures show a salt or complex split into parts, the way the source records it. Active and inactive are the calls of the source. Rule as the data show it: active = inhibition above about 36%; inactive = the rest.

What is called inhibition is the change of the read-out against control, counted positive when it falls.

The target of the test is Serine protease HTRA1 (Homo sapiens) (UniProt Q92743). The test can be described thus: inhibition of human HTRA1 peptidase – biochemical, fluorescence polarization, HTS, primary screen (AID 504803).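 Also: 0% = enzyme with DMSO and 100% = wells lacking enzyme.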 Conditions: recombinant HTRA1, FP-rhodamine activity-based probe, at 5.96 µM, active compounds read high.
`CP(=S)(Nn1cnnc1)Oc1ccccc1` (configuration not stated): the inhibition was inactive: 0.25%.

As for `COc1ccccc1OP(C)(=O)Nc1ccccc1` (configuration not stated), the inhibition was inactive: 3.99%.

Take `CP(=O)(Nc1ccccc1Br)Oc1ccccc1` (configuration not stated): the inhibition is inactive: 15.8%.

Consider `Cc1cccc(C)c1OP(C)(=O)Nc1ccc(SC(F)(F)F)cc1` (configuration not stated), for which the inhibition is inactive: 3.22%.

With `Cc1ccc(Nc2c([N+](=O)[O-])cc([N+](=O)[O-])cc2[N+](=O)[O-])cc1`, the inhibition was inactive: 28.8%.

As to `CP(=O)(Oc1ccccc1)OC(c1ccccc1)C(F)(F)F` (configuration not stated), the inhibition was inactive: -6.42%.

For the compound `CCc1ccc(OP(C)(=O)N2CCN(c3ccc([N+](=O)[O-])cc3)CC2)cc1` (configuration not stated), the inhibition is inactive: -7.24%.

For `CP(=O)(NC(=O)Nc1ccccc1)Oc1ccccc1` (configuration not stated), the inhibition was inactive: 0.29%.

On to `Cc1cc(C)cc(OP(C)(=O)Nc2ccc(SC(F)(F)F)cc2)c1` (configuration not stated), for which the inhibition is inactive: -32.1%.

Turning to `CCOP(C)(=S)SCC(=O)NC(C)C(=O)O` (configuration not stated), the inhibition is inactive: 1.27%.

Consider `CCOC(=O)c1ccc(NP(C)(=O)Oc2ccc(OC)cc2)cc1` (configuration not stated), for which the inhibition is inactive: 3.14%.

In the case of `CP(=O)(Nc1ccccn1)Oc1ccc(Cl)cc1` (configuration not stated), the inhibition is inactive: -2.05%.

Consider `CCN(CC)CCCOC(=O)C(O)(c1ccccc1)c1ccccc1`, for which the inhibition was inactive: -5.66%.

As for `O=[N+]([O-])c1cc([N+](=O)[O-])c(Nc2cccnc2)c([N+](=O)[O-])c1`, the inhibition was inactive: 8.37%.

As for `CC(C)(C)c1ccc(OP(C)(=O)Nc2ccc(SC(F)(F)F)cc2)cc1` (configuration not stated), the inhibition is inactive: -35%.

As to `Cc1cccc(C)c1OP(C)(N)=O` (configuration not stated), the inhibition was inactive: -1.65%.

With `O=[N+]([O-])c1ccc2c(c1)C=Nc1ccccc1O2`, the inhibition was inactive: 2.18%.

As for `CCOC(=O)c1ccc(NP(C)(=O)Oc2ccccc2)cc1` (configuration not stated), the inhibition was inactive: 8.23%.

In the case of `COc1ccccc1OP(C)(=O)Nc1ccc(C)cc1` (configuration not stated), the inhibition was inactive: -4.77%.

As for `Cc1ccc(NP(C)(=O)Oc2ccccc2)c(C)c1` (configuration not stated), the inhibition was inactive: -4.29%.

Consider `COc1ccccc1OP(C)(=O)Nc1cc(Cl)ccc1C` (configuration not stated), for which the inhibition is inactive: -3.28%.

As to `COc1ccc(OP(C)(=O)Nc2cccc(F)c2)cc1` (configuration not stated), the inhibition is inactive: -6.87%.

Consider `Cc1cc(C)cc(OP(C)(N)=O)c1` (configuration not stated), for which the inhibition is inactive: 4.79%.

In the case of `O=C(O)c1cccc(Nc2c([N+](=O)[O-])cc([N+](=O)[O-])cc2[N+](=O)[O-])c1`, the inhibition is inactive: -0.6%.

Regarding `CC1=NCCc2c1[nH]c1ccccc21.O=[N+]([O-])c1cc([N+](=O)[O-])c(O)c([N+](=O)[O-])c1`, the inhibition is inactive: 3.13%.

In the case of `COc1ccccc1OP(C)(=O)Nc1cccc(Br)c1` (configuration not stated), the inhibition is inactive: -5.74%.

As to `Cc1cc(C)cc(OP(C)(=O)Nc2ccc(C)cc2C)c1` (configuration not stated), the inhibition was inactive: -4.46%.

For the compound `CCOC(=O)c1ccc(NP(C)(=O)Oc2cc(C)cc(C)c2)cc1` (configuration not stated), the inhibition is inactive: -8.73%.

As to `CP(=O)(Nc1cccc(Br)c1)Oc1ccccc1` (configuration not stated), the inhibition is inactive: 1.01%.

`Cc1cc(C)cc(OP(C)(=O)Nc2ccccn2)c1` (configuration not stated): the inhibition was inactive: -0.92%.

As for `Cc1ccc(C)c(NP(C)(=O)Oc2ccccc2)c1` (configuration not stated), the inhibition was inactive: 2.87%.

As for `O=[N+]([O-])c1cc([N+](=O)[O-])c(-n2nnc3ccccc32)c([N+](=O)[O-])c1`, the inhibition was inactive: -10.5%.

As for `O=[N+]([O-])c1cc([N+](=O)[O-])c(-c2cnn(-c3ccccc3)c2)c([N+](=O)[O-])c1`, the inhibition is inactive: 7.61%.

As to `Cc1nc2ccc3ccccc3c2s1.O=[N+]([O-])c1cc([N+](=O)[O-])c(O)c([N+](=O)[O-])c1`, the inhibition was inactive: -5.62%.

As to `O=[N+]([O-])c1cc([N+](=O)[O-])c(Nc2nnnn2CCO)c([N+](=O)[O-])c1`, the inhibition was inactive: -6.7%.

For the compound `CC1=C2N=C(C=C3N=C(C(C)=C4[N-][C@@](C)([C@@H]5N=C1[C@](C)(CCC(=O)NC[C@@H](C)OP(=O)([O-])O[C@H]1[C@@H](O)[C@@H](n6cnc7cc(C)c(C)cc76)O[C@@H]1CO)[C@H]5CC(N)=O)[C@@](C)(CC(N)=O)[C@@H]4CCC(N)=O)[C@@](C)(CC(N)=O)[C@@H]3CCC(N)=O)C(C)(C)[C@@H]2CCC(N)=O.[C-]#N.[Co+3]`, the inhibition was inactive: 0.35%.

Take `CCOC(=O)C(CC)C1=NC(C)(C)Cc2ccccc21.O=[N+]([O-])c1cc([N+](=O)[O-])c(O)c([N+](=O)[O-])c1` (configuration not stated): the inhibition is inactive: 3.14%.

With `COc1ccccc1OP(C)(=O)Nc1c(C)cccc1C` (configuration not stated), the inhibition was inactive: 5.39%.

As for `CN1CCCCC1COC(=O)C1(O)c2ccccc2CCc2ccccc21` (configuration not stated), the inhibition was inactive: -3.12%.

For `CP(=O)(Nc1ccc(SC(F)(F)F)cc1)Oc1ccccc1` (configuration not stated), the inhibition is inactive: -2.4%.

As for `CCCOc1ccc(NP(C)(=O)Oc2ccc(Cl)cc2)cc1` (configuration not stated), the inhibition was inactive: -5.89%.

Turning to `COc1ccc(OP(C)(=O)Nc2cccc(Br)c2)cc1` (configuration not stated), the inhibition is inactive: -2.76%.

As to `COc1ccc(NP(C)(=O)Oc2ccccc2OC)cc1` (configuration not stated), the inhibition was inactive: -1.46%.

In the case of `CN(C)CCOC(=O)C(O)(c1ccccc1)C1CCCCC1` (configuration not stated), the inhibition is inactive: 5.34%.

As to `O=[N+]([O-])c1cc([N+](=O)[O-])c(NCC2CCS(=O)(=O)C2)c([N+](=O)[O-])c1` (configuration not stated), the inhibition is inactive: 1.99%.

On to `Cc1cc(-c2cccc3ccccc23)c(C)cn1.O=[N+]([O-])c1cc([N+](=O)[O-])c(O)c([N+](=O)[O-])c1`, for which the inhibition was inactive: -15.7%.

For the compound `O=[N+]([O-])c1ccc(OP2(=O)COCCO2)cc1` (configuration not stated), the inhibition was inactive: 3.95%.

As for `Cc1c(C(c2ccc3c(c2)OCO3)c2c(C)n(C)n(-c3ccccc3)c2=O)c(=O)n(-c2ccccc2)n1C.O=[N+]([O-])c1cc([N+](=O)[O-])c(O)c([N+](=O)[O-])c1`, the inhibition is inactive: 1.07%.

Take `CP(=O)(Nc1ccc(SC(F)(F)F)cc1)Oc1ccc(F)cc1` (configuration not stated): the inhibition is inactive: -6.09%.

Consider `CCOP(C)(=S)SCC(=O)NC(C)(CC)C(=O)O` (configuration not stated), for which the inhibition was inactive: -0.79%.

Regarding `CP(=O)(Nc1ccc2c(c1)OCCO2)Oc1ccccc1` (configuration not stated), the inhibition is inactive: -4.64%.

As to `Cc1ccccc1NP(C)(=O)Nc1ccccc1C`, the inhibition is inactive: -6.32%.

Take `O=[N+]([O-])c1cc([N+](=O)[O-])c(Nc2ccc(Cl)cc2)c([N+](=O)[O-])c1`: the inhibition is inactive: 14.4%.

Turning to `CC(C)c1ccc(OP(C)(=O)Nc2ccc(SC(F)(F)F)cc2)cc1` (configuration not stated), the inhibition was inactive: -29%.

As to `CP(=O)(Nc1ccccc1F)Oc1ccccc1` (configuration not stated), the inhibition is inactive: -1.36%.

For `O=C(OCCN1CCN(CCOCc2ccccc2)CC1)C(O)(c1ccccc1)c1ccccc1`, the inhibition was inactive: 6.39%.

For `O=C(OC1CN2CCC1CC2)c1ccc([N+](=O)[O-])cc1` (configuration not stated), the inhibition is inactive: 9.43%.

With `COc1ccc2c(c1O)-c1c(O)c(OC)cc3c1[C@H](C2)[N+](C)(C)CC3.O=[N+]([O-])c1cc([N+](=O)[O-])c([O-])c([N+](=O)[O-])c1[O-]`, the inhibition is inactive: -1.2%.

Regarding `COc1ccc(OP(C)(=O)Nc2ccc(SC(F)(F)F)cc2)cc1` (configuration not stated), the inhibition was inactive: -20.1%.

For the compound `CCOC(=O)c1ccc(NP(C)(=O)Oc2ccc(F)cc2)cc1` (configuration not stated), the inhibition is inactive: 3.54%.

For `CCN(CC)CCCOC(=O)C(O)(c1ccccc1)C1CCCCC1` (configuration not stated), the inhibition is inactive: 19.8%.

Regarding `Cc1c([N+](=O)[O-])cc([N+](=O)[O-])c(Br)c1[N+](=O)[O-]`, the inhibition was inactive: 0.57%.

Regarding `O=[N+]([O-])c1cc([N+](=O)[O-])c(OC2CCCCC2O)c([N+](=O)[O-])c1` (configuration not stated), the inhibition was inactive: -20.5%.

With `CCCCCOc1ccc(NP(C)(=O)Oc2ccc(Cl)cc2Cl)cc1` (configuration not stated), the inhibition is inactive: -31.2%.

For `CP(=O)(Nc1ccccc1)Oc1ccc(F)cc1` (configuration not stated), the inhibition is inactive: -1.68%.

In the case of `O=C1C(O)=C([N+](=O)[O-])C(=O)C(O)=C1[N+](=O)[O-]`, the inhibition is inactive: 2.46%.

On to `Cc1cc(C)cc(OP(C)(=O)Nc2cccc(C(F)(F)F)c2)c1` (configuration not stated), for which the inhibition was inactive: -8.35%.

Regarding `COc1ccc(OP(C)(=O)Nc2ccccc2Br)cc1` (configuration not stated), the inhibition is inactive: -4.77%.

For the compound `COc1ccccc1OP(C)(=O)Nc1ccc(C)c(C)c1` (configuration not stated), the inhibition was inactive: -1.84%.

With `CP(=O)(OCCOc1ccccc1)OCCOc1ccccc1`, the inhibition is inactive: 5.95%.

For the compound `CP(=O)(Nc1ccc(Cl)cc1Cl)Oc1ccccc1` (configuration not stated), the inhibition was inactive: 0.77%.

For the compound `CCCCCCCCCCCCCCCC1C[N+](C)(C)CCOP(C)(=O)O1` (configuration not stated), the inhibition is active: 74.7%.

As for `COc1ccccc1OP(C)(=O)Nc1ccc(Br)cc1` (configuration not stated), the inhibition was inactive: -3.35%.

Turning to `CN(C)CCOC(=O)C(O)(c1ccccc1)C1CCCC1` (configuration not stated), the inhibition was inactive: 16.5%.

Consider `COc1ccc(OP(C)(=O)Nc2ccccn2)cc1` (configuration not stated), for which the inhibition was inactive: 1.19%.

As for `O=[N+]([O-])c1cc([N+](=O)[O-])c(Nc2ccccn2)c([N+](=O)[O-])c1`, the inhibition is inactive: 2.07%.

On to `Cc1c(NP(C)(=O)Oc2ccc(C(C)C)cc2)c(=O)n(-c2ccccc2)n1C` (configuration not stated), for which the inhibition is inactive: 1.47%.

As to `CCc1ccc(OP(C)(=O)O)cc1`, the inhibition is inactive: -1.33%.

For `CP(=O)(Nc1ccccn1)Oc1ccccc1` (configuration not stated), the inhibition was inactive: 5.56%.

In the case of `COc1ccccc1OP(C)(=O)Nc1ccc(C)cc1C` (configuration not stated), the inhibition was inactive: -0.77%.

Regarding `CCN(CC)CC(O)COC(=O)C(O)(c1ccccc1)C1CCCCC1` (configuration not stated), the inhibition is inactive: -2.28%.

`COc1ccc(OP(C)(=O)Nc2ccc(Br)cc2)cc1` (configuration not stated): the inhibition is inactive: 4.65%.

In the case of `CP(=O)(Oc1ccccc1)N1CCOC1=O` (configuration not stated), the inhibition is inactive: 5.76%.

Regarding `CCc1ccc(OP(C)(=O)Nc2cccnc2)cc1` (configuration not stated), the inhibition is inactive: 5.65%.

Consider `COc1ccccc1OP(C)(=O)Nc1c(C)n(C)n(-c2ccccc2)c1=O` (configuration not stated), for which the inhibition was inactive: 2.08%.

Consider `O=C(OCCCN1CCCC1)C(O)(c1ccccc1)C1CCCCC1` (configuration not stated), for which the inhibition is inactive: 5.72%.

`CP(=O)(Nc1ccc(Cl)cc1)Oc1ccc(F)cc1` (configuration not stated): the inhibition is inactive: -13.1%.

Turning to `CC(C)(C)c1ccc(OP(C)(=O)O)cc1`, the inhibition was inactive: 10.1%.

On to `COc1ccccc1OP(C)(=O)Nc1ccccc1Br` (configuration not stated), for which the inhibition is inactive: 0.4%.

Consider `CN(C)C(=O)c1c([N+](=O)[O-])cc([N+](=O)[O-])cc1[N+](=O)[O-]`, for which the inhibition is inactive: -14.8%.

Turning to `CP(=O)(OC12CC3CC(CC(C3)C1)C2)OC12CC3CC(CC(C3)C1)C2`, the inhibition is inactive: -6.01%.

With `CCOC(=O)c1ccc(NP(C)(=O)Oc2ccc(Cl)cc2)cc1` (configuration not stated), the inhibition was inactive: -3.46%.
